Paper PMC2801547 (Journal of medicinal chemistry, 2009)

Tested on: WiDr colorectal adenocarcinoma cells
Test: cells
Details: Homo sapiens, 72 h

`CC(/C=C/[C@@H]1C[C@]2(CO2)CC(C)(C)O1)=C\C[C@H]1CC[C@@H](NC(=O)/C=C\[C@H](C)OC(=O)N2CCN(C3CCCCCC3)CC2)CC1` [compound 7, (S,Z)-5-((1R,4R)-4-((2E,4E)-5-((3R,5S)-7,7-dimethyl-1,6-dioxaspiro[2.5]octan-5-yl)-3-methylpenta-2,4-dienyl)cyclohexylamino)-5-oxopent-3-en-2-yl 4-cycloheptylpiperazine-1-carboxylate] was tested, and the pIC50 was 5.30 to 5.40.

pIC50: −log10 of the molar value.
